Reference: patent publication US9688645B2, “Macrocyclic urea and sulfamide derivatives as inhibitors of TAFIa” (SANOFI, priority 2008, dated 2017)
pIC50: −log10 of the molar value.

The chains behind the UniProt entries cited, without tags or fusion partners. Residues count along the entry.
UniProt Q96IY4, 115-423: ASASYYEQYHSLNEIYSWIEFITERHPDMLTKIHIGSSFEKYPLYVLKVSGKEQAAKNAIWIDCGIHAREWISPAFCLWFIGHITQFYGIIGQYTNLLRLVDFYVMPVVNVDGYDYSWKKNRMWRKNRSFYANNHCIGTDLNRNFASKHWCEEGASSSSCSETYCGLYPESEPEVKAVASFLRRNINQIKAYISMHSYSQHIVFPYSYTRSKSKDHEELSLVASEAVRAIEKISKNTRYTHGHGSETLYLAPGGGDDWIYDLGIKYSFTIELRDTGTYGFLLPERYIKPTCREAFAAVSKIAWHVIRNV

Biological target: TAFIa (Homo sapiens (Human), UniProt Q96IY4)
Test: TAFIa inhibition, Actichrome plasma TAFI Activity Kit (American Diagnostica)
Assay type: biochemical
Conditions: chromogenic read-out at 420 nm, 15 min preincubation at room temperature, pH 7.4, duplicate determination
Description: The prepared substances were tested for TAFIa inhibition using the Actichrome plasma TAFI Activity Kit from American Diagnostica (Pr. No. 874). This entailed adding 28 μl of assay buffer (20 mM Hepes, 150 mM NaCl, pH 7.4) and 10 μl of TAFIa (American Diagnostica Pr. No. 874TAFIA; 2.5 μg/ml) to 2 μl of 2.5 mM DMSO solution of the substance and incubating in a 96 half-well microtiter plate at room temperature for 15 minutes. The enzyme reaction was started by adding 10 μl of TAFIa developer (prediluted 1:2 with assay buffer). The time course of the reaction was followed at 420 nm in a microtiter plate reader (SpectraMax plus 384; Molecular Devices) for 15 minutes.
The IC50 values were calculated from the averaged values (duplicate determination) of serial dilutions of the substance with the aid of the Softmax Pro software (version 4.8; Molecular Devices).

pIC50: 7.28
SMILES: CC(C)[C@H]1COCCCCOC[C@@H](NC(=O)N[C@@H](CCCCN)C(=O)O)C(=O)N1 [Example 6-6, (S)-6-Amino-2-[3-((3S,6R)-3-isopropyl-5-oxo-1,8-dioxa-4-azacyclododec-6-yl)ureido]-hexanoic acid]
